Measurements reported in BindingDB's records for doi:10.1038/npp.1993.4 (Eli Lilly, 1993).

Biological target: Norepinephrine transporter (Rattus norvegicus, UniProt Q9JIA2)

In the case of `CNCC[C@@H](Oc1cccc2ccccc12)c1cccs1` [(R)-duloxetine], the Ki is reported as 15.9 nM.
